Screens from PubChem BioAssay.
TrxR1 substrate – is turned over as a substrate by rat TrxR1; purified TrxR1 substrate turnover, NADPH consumption readout; 390,000 compounds, 0.01% hits; O89049; Potency, µM (series often up to 114 µM), inactives show top-dose activity change, negative = substrate turnover; note: potency is the fitted concentration of half-maximal effect; % is set by controls: 0 for no effect and ±100 for the full control effect; nearly all actives have a fitted effect of over 50% in size
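Rat TrxR1, dispensed at 90 nM, was prereduced with 400 uM NADPH (final) for 5 min at ~22 deg C, then incubated with compound 15 min before 400 uM selenite. A first-read NADPH fluorescence drop versus no-compound background flagged substrates.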
miR-21 reporter – miR-21 reporter, rising signal | HeLa miR-21 FLuc reporter, luciferase, 48 h | Potency, µM (doses to about 38.3 µM), inactives show at the top dose reporter change, positive = more light | 340,000 tested, under 10 active | AID 2288; active = well fitted rising curve with a large enough effect; inconclusive = small, poorly fitted or top-dose-only effect; inactive = no such curve, though single readings can be large or run the other way;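 note: % of control where 0% means no effect; miR-21 action dims this reporter so a rising signal means less miR-21 action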
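HeLa cells stably expressing CMV-driven firefly luciferase with a downstream miR-21 binding sequence, endogenously expressing miR-21, were treated with titrations (up to about 40uM final) for 48 hours at 37 degree Celsius. Luciferase luminescence was read after lysis.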
rTrxR1 inhibitor – blocks rat thioredoxin reductase 1. recombinant rTrxR1, NADPH fluorescence consumption, selenite substrate. Potency, µM (titrated, usually from 114 µM), for the others: at the top dose activity change, negative = inhibition, actives largely listed as inhibitors. 390,000 compounds, 1% hits. AID 588453; note: potency is the fitted concentration of half-maximal effect; % is set by controls: 0 for no effect and ±100 for the full control effect; nearly all actives have a fitted effect of over 65% in size
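Rat TrxR1 (90 nM in the dispensed reagent) was pre-reduced with 400 uM NADPH for 5 min at room temperature, then incubated with compound for 15 min. After 400 uM selenite was added, NADPH fluorescence (Ex 340/Em 450 nm) was followed for 8 min.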
Anesthetic bind – candidate novel general anesthetic via apoferritin binding; apoferritin/1-aminoanthracene competitive binding, fluorescence; Potency, µM (titrated, usually from 77.5 µM), for the others: at the top dose activity change, negative = displacement, actives largely listed as inhibitors; 350,000 compounds, 0.074% hits; AID 485281; note: potency is the fitted concentration of half-maximal effect; % is set by controls: 0 for no effect and ±100 for the full control effect; nearly all actives have a fitted effect of over 20% in size
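Steps: apoferritin (10 uM) was premixed with half-saturated 1-AMA in PBS, compounds were pin-transferred, plates stood 10 min at room temperature, fluorescence was read at 380/535 nm, and curves were fitted with a Hill equation.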
ClpP mod – qHTS Assay for Activators of ClpP. Potency, µM (series often up to 57.5 µM), for inactives: at the top dose activity change, negative = active. 340,000 compounds, 1.9% hits. ATP-dependent Clp protease proteolytic subunit (Bacillus subtilis (strain 168)), P80244. purified B. subtilis ClpP, FRET peptide cleavage, 20 min; active = well fitted falling curve with a large enough effect; inconclusive = small, poorly fitted or top-dose-only effect; inactive = no such curve, though single readings can be large or run the other way; note: potency is the fitted concentration of half-maximal effect; the source files actives as falling curves though it sought activators and does not explain the sign; nearly all actives have a fitted effect of over 65% in size
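Buffer: 100 mM Tris/HCl pH8, 100 mM KCl, 0.05% low protease BSA, 2.5% glycerol, 0.01% Tween-20. ClpP 10 microg/mL final; 20 min RT; delta FRET normalized to ADEP and DMSO controls.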
* marks the source's active call; other numbers are inactive results; ? = inconclusive; / = no result; [ ] = another dose, or the depositor's remark. A selection: hits, their analogues and other compounds. The true share with any hit is near 2.5%. Unless noted, calls come from the whole dose curve; as a rule, active = well fitted curve in the direction sought with a large enough effect; inconclusive = small, poorly fitted or top-dose-only effect, or another doubt; inactive = no such curve, though single readings can be large; an effect the other way counts as inactive or inconclusive.

Chains of the proteins cited; added tags and fusions are not shown.
ATP-dependent Clp protease proteolytic subunit (Bacillus subtilis (strain 168)), P80244, UniProt P80244, whole entry, looked up: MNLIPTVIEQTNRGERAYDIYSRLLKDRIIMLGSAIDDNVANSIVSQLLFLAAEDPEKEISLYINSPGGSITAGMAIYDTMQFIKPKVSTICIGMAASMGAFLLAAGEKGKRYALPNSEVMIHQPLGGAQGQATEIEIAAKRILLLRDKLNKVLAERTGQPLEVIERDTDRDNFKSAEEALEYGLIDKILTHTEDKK

Letters: A = TrxR1 substrate; B = miR-21 reporter; C = rTrxR1 inhibitor; D = Anesthetic bind; E = ClpP mod
#1 O=C1S/C(=C\C=C\c2ccco2)C(=O)N1c1ccccc1
  A: -0.1%	B: -56.4%	C: 50.1µM*	D: ?	E: /

#2 O=C(O)CC(C(=O)O)N1C(=O)/C(=C/C=C/c2ccco2)SC1=S (configuration not stated)
  A: -26.2%	B: -0.3%	C: 20µM*	D: 4.9%	E: -0.6%

#3 O=C1S/C(=C\C=C\c2ccco2)C(=O)N1c1ccc(O)cc1
  A: -3.5%	B: -35.8%	C: ?	D: -16.1%	E: 2.7%

#4 O=C(O)c1cccc(-n2cccc2/C=C2/NC(=O)N(c3cccc(Cl)c3)C2=O)c1
  A: -4.9%	B: -5.3%	C: -9.8%	D: -11.0%	E: /

#5 COc1ccc(-n2cccc2/C=C2/NC(=O)N(c3cccc(Cl)c3)C2=O)cc1
  A: -11.6%	B: -21.2%	C: -13.2%	D: 42.9%	E: 25.1µM*

#6 Cn1nnc2sc3c(c2c1=O)CCCC3
  A: 8.8%[57.1 µM]	B: -7.1%	C: 16.8%[57.1 µM]	D: 31.6µM*	E: 0.0%

#7 Cc1ccccc1Cn1nnc2sc3c(c2c1=O)CCCC3
  A: -6.1%	B: -14.9%	C: 9.4%	D: ?	E: -2.0%

#8 COc1ccc(C2=NO[C@@H]3C(=O)N(c4ccc(C)cc4C)C(=O)[C@H]23)cc1OC
  A: 13.2%	B: -3.3%	C: 22.4µM*	D: ?	E: 11.3%

#9 O=C(c1ccccc1)c1cc(Cl)ccc1N1C(=O)C=CC1=O
  A: 7.2%	B: ?	C: 0.794µM*	D: -18.3%	E: /

#10 Cc1ccc(C)c(NC(=O)CN2CCSc3ccc(S(=O)(=O)N4CCCC4)cc32)c1
  A: 4.8%[57.1 µM]	B: 3.5%	C: 14.7%[57.1 µM]	D: -18.1%	E: 4.3%

Letters: A = TrxR1 substrate; B = miR-21 reporter; C = rTrxR1 inhibitor; D = Anesthetic bind; E = ClpP mod
#11 COC(=O)c1cc(C)sc1NC(=O)C1C2C=CC(CC2)C1C(=O)O (configuration not stated)
  A: 8.8%[57.1 µM]	B: -3.5%	C: 12.0%[57.1 µM]	D: 6.2%	E: -10.3%

#12 CCOC(=O)c1c(NC(=O)C2C3C=CC(CC3)C2C(=O)O)sc(C)c1C (configuration not stated)
  A: -17.1%	B: -0.5%	C: -18.8%	D: 1.0%	E: 28.2µM*

#13 CC(=O)Nc1sc(C)c(C)c1C(=O)OCC(=O)N(C)C1CCS(=O)(=O)C1 (configuration not stated)
  A: 6.1%	B: -9.6%	C: 6.5%[57.1 µM]	D: -15.0%	E: 35.5µM*

#14 CCOC(=O)c1c(NC(=O)C2C3C=CC(C3)C2C(=O)O)sc2c1CCC(CC)C2 (configuration not stated)
  A: 4.1%	B: 22.3%	C: 10.6%	D: -17.1%	E: 25.1µM*

#15 CC(C)C(=O)Nc1nc(-c2ccc(S(=O)(=O)N3CCOCC3)cc2)cs1
  A: 12.7%	B: 1.9%	C: 26.5%	D: -9.5%	E: 31.6µM*

#16 COc1ccccc1OC(C)C(=O)Nc1nc(-c2ccc(S(=O)(=O)N3CCOCC3)cc2)cs1 (configuration not stated)
  A: 5.2%	B: -6.6%	C: 27.6%	D: -11.9%	E: -11.0%

#17 O=C(CSc1ccc(-c2ccco2)nn1)N1CCCCC1
  A: 7.4%[57.1 µM]	B: -16.7%	C: -65.7%	D: -13.5%	E: 0.4%

#18 COc1ccc(C)cc1NC(=O)CSc1ccc(-c2ccco2)nn1
  A: 3.5%	B: -4.3%	C: 15.8µM*	D: -18.6%	E: 0.1%

#19 O=C(CSc1ccc(-c2ccco2)nn1)N1CCCC1
  A: 2.0%	B: -3.5%	C: 44.7µM*	D: -5.2%	E: /

#20 COc1ccc(C)cc1NC(=O)CSc1nnc(-c2ccco2)n1N
  A: -8.4%	B: 2.0%	C: -14.4%	D: -13.6%	E: -0.9%

| no. | SMILES | TrxR1 substrate | miR-21 reporter | rTrxR1 inhibitor | Anesthetic bind | ClpP mod |
| --- | --- | --- | --- | --- | --- | --- |
| 21 | CCc1ccc(NC(=O)CSc2ccc(-c3ccco3)nn2)cc1 | 1.1% | -1.3% | ? | -18.8% | 0.7% |
| 22 | Cc1cccc(NC(=O)CSc2ccc(-c3ccccn3)nn2)c1C | 7.5%[57.1 µM] | 1.5% | 20.6%[57.1 µM] | -1.5% | / |
| 23 | Cc1cccc(NC(=O)CSc2ccc(-c3ccco3)nn2)c1C | -5.7% | 0.3% | 12.6µM* | -4.9% | 1.3% |
| 24 | CC(=O)c1cccc(NC(=O)CSc2ccc(-c3ccco3)nn2)c1 | -3.8% | 4.1% | 11.2µM* | ? | -7.4% |
| 25 | COc1ccc(C2CC(=O)c3cc(-c4nc(-c5cccc(Cl)c5)cs4)c(=O)[nH]c3C2)cc1OC (configuration not stated) | 6.7% | -5.6% | -1.8% | -2.0% | ? |
| 26 | COc1ccc(CC(=O)Nc2sc3c(c2C(=O)Nc2cccc(C)c2)CCCCC3)cc1 | -10.1% | -2.4% | -17.8% | -7.0% | -1.3% |
| 27 | Cc1ccc(Cl)cc1-n1nnc(-c2nc(-c3ccc4c(c3)OCO4)no2)c1C | -0.2%[57.1 µM] | -35.2% | 13.0%[57.1 µM] | -0.4% | -1.2% |
| 28 | O=C(CSc1ccc(-c2ccco2)nn1)c1cccc([N+](=O)[O-])c1 | 7.9% | -11.8% | 15.8µM* | -3.2% | -0.2% |
| 29 | O=C(CSc1ccc(-c2ccco2)nn1)NCc1ccc(Cl)cc1 | 1.4% | -9.3% | 28.2µM* | 1.2% | -3.4% |
| 30 | O=C(CSc1ccc(-c2ccco2)nn1)Nc1ccc(F)cc1F | -4.0% | 2.8% | 25.1µM* | -15.8% | -29.3% |
| 31 | CCCN(CCC)C(=O)c1c[nH]c2ccc(S(=O)(=O)N(C)c3ccc(Cl)cc3)cc2c1=O | 0.2%[57.1 µM] | 3.0% | 12.4%[57.1 µM] | -0.5% | ? |
| 32 | Cc1ccc(-n2c(=O)c3oc4ccccc4c3n(Cc3ccccc3F)c2=O)cc1C | 5.8% | -4.1% | 29.1% | -5.7% | ? |
| 33 | OCCOCCNc1ncnc2c1cnn2-c1ccc(Cl)cc1 | 17.1%[57.1 µM] | -32.9% | 27.3%[57.1 µM] | -2.2% | 31.6µM* |
| 34 | COCCNc1ncnc2c1cnn2-c1ccc(Cl)cc1 | 15.9% | -34.0% | 10.5% | -4.6% | 22.4µM* |
| 35 | COc1cc(NC(=O)Cn2cc(S(=O)(=O)N3CCC(C)CC3)c3ccccc3c2=O)cc(OC)c1OC | -9.0% | -6.2% | 0.5% | -19.2% | -2.4% |
| 36 | NNc1nc2ccc(F)cc2s1 | -7.2% | -41.0% | -1.7% | -11.2% | -0.9% |
| 37 | Fc1ccc2nc(Nc3ccccc3)sc2c1 | 2.2%[57.1 µM] | -46.3% | -2.8%[57.1 µM] | ? | 11.2µM* |
| 38 | CC(C)(C)n1ncc2c(=O)n(Cc3cccc(Cl)c3Cl)cnc21 | -5.8% | / | 3.4% | / | / |
| 39 | O=S1(=O)C=C(Sc2nnc(-c3ccccc3)o2)c2ccccc21 | 6.7% | ? | 0.398µM* | ? | -0.7% |
| 40 | CCOC(=O)c1ccc(COC(=O)CCc2nc3ccccc3[nH]c2=O)o1 | 3.3% | -7.9% | -8.7% | -1.8% | 31.6µM* |
| 41 | CCCCOC(=O)CCc1nc2ccccc2[nH]c1=O | 11.6%[57.1 µM] | 1.7% | -5.0% | -17.4% | ? |
| 42 | O=C(COc1ccccc1)NC(NC(=S)Nc1ccccc1C(=O)O)C(Cl)(Cl)Cl (configuration not stated) | 16.3%[57.1 µM] | 0.7% | 1.1%[57.1 µM] | -19.5% | 35.5µM* |
| 43 | Cc1ccc(C)c(NC(=S)NC(NC(=O)Cc2ccccc2)C(Cl)(Cl)Cl)c1 (configuration not stated) | -0.4% | -2.3% | 13.3% | -10.0% | -1.7% |
| 44 | O=C(CCN1CCC2CCC(C2)C1)c1ccccc1 (configuration not stated) | 3.3%[11.4 µM] | / | 0.708µM* | / | -2.1% |
| 45 | CC(C)CC(=O)Nc1c(C(=O)N2CCN(c3ccccc3F)CC2)oc2ccccc12 | -10.0% | 28.2% | 4.1% | 5.6% | -2.6% |
| 46 | NS(=O)(=O)c1ccc(N/N=C/c2cn(-c3ccccc3)nc2-c2cccs2)cc1 | -4.3% | -25.2% | ? | 32.6% | 15.8µM* |
| 47 | NS(=O)(=O)c1ccc(N/N=C/c2cn(-c3ccccc3)nc2-c2cccs2)c([N+](=O)[O-])c1 | -2.0%[57.1 µM] | -13.9% | 9.6%[57.1 µM] | -9.9% | / |

Entries of single compounds, looked up by structure.
Entry for `Cc1ccc(C)c(NC(=O)CN2CCSc3ccc(S(=O)(=O)N4CCCC4)cc32)c1` = TrxR1 substrate: 4.8%[57.1 µM]; miR-21 reporter: 3.5%; rTrxR1 inhibitor: 14.7%[57.1 µM]; Anesthetic bind: -18.1%; ClpP mod: 4.3%
Entry for `CCOC(=O)c1ccc(COC(=O)CCc2nc3ccccc3[nH]c2=O)o1` = TrxR1 substrate: 3.3%; miR-21 reporter: -7.9%; rTrxR1 inhibitor: -8.7%; Anesthetic bind: -1.8%; ClpP mod: 31.6µM*
